According to BindingDB's records for PubMed 2905001 (Mcneil Pharmaceutical, 1988):
Structures can show the parent of a compound that is named as a salt.

Sequences of proteins named here, by UniProt entry; tags and fusion partners are left off.
UniProt P14842, whole entry: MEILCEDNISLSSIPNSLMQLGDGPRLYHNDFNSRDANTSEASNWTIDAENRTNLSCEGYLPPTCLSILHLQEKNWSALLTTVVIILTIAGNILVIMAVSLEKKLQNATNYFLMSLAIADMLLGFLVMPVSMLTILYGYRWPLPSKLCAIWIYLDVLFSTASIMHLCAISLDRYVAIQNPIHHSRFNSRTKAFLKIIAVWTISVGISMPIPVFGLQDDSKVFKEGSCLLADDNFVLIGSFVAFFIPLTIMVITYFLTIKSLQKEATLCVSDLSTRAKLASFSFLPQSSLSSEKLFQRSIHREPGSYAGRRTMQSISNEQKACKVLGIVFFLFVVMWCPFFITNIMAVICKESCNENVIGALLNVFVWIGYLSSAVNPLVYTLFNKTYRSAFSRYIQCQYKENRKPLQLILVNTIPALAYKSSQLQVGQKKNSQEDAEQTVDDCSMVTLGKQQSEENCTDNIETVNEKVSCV
UniProt P23977, whole entry: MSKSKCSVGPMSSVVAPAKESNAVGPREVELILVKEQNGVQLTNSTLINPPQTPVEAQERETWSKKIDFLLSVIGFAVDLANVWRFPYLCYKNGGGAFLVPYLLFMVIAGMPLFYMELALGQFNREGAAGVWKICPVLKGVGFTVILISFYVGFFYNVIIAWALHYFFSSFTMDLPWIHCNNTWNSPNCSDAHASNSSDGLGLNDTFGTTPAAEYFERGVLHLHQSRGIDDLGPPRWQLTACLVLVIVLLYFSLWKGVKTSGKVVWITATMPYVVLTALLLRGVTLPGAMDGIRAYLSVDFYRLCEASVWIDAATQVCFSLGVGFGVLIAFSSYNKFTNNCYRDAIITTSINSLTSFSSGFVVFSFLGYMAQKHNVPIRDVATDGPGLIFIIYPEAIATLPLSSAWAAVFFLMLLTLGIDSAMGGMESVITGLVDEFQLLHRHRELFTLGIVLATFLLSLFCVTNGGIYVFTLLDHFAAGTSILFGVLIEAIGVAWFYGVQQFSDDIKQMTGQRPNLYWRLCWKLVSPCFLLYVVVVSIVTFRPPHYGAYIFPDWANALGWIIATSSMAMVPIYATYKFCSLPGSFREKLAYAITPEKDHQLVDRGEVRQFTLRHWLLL

Tests used:
[1] = target: 5-hydroxytryptamine receptor 2A (Rattus norvegicus, UniProt P14842)
[2] = target: Sodium-dependent dopamine transporter (Rattus norvegicus, UniProt P23977)

Row | Structure (SMILES) | Ki [1] [nM] | Ki [2] [nM]
1 | O=c1n(CCCN2CCN(c3cccc(Cl)c3)CC2)nc2ccccn12 [2-{3-[4-(3-chlorophenyl)piperazin-1-yl]propyl}[1,2,4]triazolo[4,3-a]pyridin-3(2H)-one] | 1.94 | –
2 | CN(C)CCCC1(c2ccc(F)cc2)OCc2cc(C#N)ccc21 (stereo not drawn) [CITALOPRAM HYDROBROMIDE] | – | > 10000
3 | Fc1ccc([C@@H]2CCNC[C@H]2COc2ccc3c(c2)OCO3)cc1 [PAROXETINE] | – | 540
